Binding of CDR-mutated scFvs to a peptide of the spike HR2 region

Target peptide (SARS-CoV-2 spike, HR2 region): PDVDLGDISGINAS

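Designed CDR sequences, proposed from the first random library and measured here. Several design methods are mixed in this list. In AlphaSeq, yeast of one mating type display the scFv and yeast of the other type display the target. Binding brings cells together so that they mate, and sequencing counts the barcode pairs among the diploids. Read counts were normalised to the haploid input and turned into Kd by a linear fit to BCL2-family pairs of known affinity, for each replicate. Mating was done six times.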

The variants keep the light chain, the linker and the frameworks of Ab-14 (scFv order VH, a (GGGGS)3 linker, VL).
VH: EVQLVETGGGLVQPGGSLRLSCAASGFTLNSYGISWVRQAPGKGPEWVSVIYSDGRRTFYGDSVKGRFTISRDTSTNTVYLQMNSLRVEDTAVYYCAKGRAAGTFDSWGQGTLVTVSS
VL: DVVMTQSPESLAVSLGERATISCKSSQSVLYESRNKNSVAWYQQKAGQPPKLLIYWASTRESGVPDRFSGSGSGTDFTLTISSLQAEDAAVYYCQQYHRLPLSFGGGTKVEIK

The parent's heavy chain CDRs are GFTLNSYGIS, VIYSDGRRTFYGDSVK, GRAAGTFDS; each variant's own CDRs replace them letter for letter.
Variants here have more than six changes.
The read-out is the apparent dissociation constant on a log10 scale (nM): the lower, the stronger.
The mean shown is taken over the replicates in which the pair was detected.
A pair that was not seen in that replicate is written "ND"; this usually means weak binding, but a binder can also be missed.
Nonspecific signal, from three strains lacking the peptide, appeared in 1% of pairings of all heavy chain designs, centred on 2.08 (5% of these signals below 0.84); values are not corrected for it.

Variant GFQLNEYGIS, VIYADGKRSEYADSVK, GGINSSFSV gave ND, ND, ND, ND, ND, ND.
Variant GFDLNEYGIS, VIYADGRRTFYSDSVK, GNVAGTFDD gave 0.29, 0.32, -0.41, -0.36, 0.10, 0.04 (mean 0.00).
Variant GFDLNEYGIS, VIYADGRRTFYSDSVK, GEEAGTFDQ gave 0.29, -1.03, -0.33, -1.12, -0.75, -0.43 (mean -0.56).
Variant GFDLNEYGIS, VIYADGVRTFYADSVK, GKNAGTFDQ gave -0.79, -0.05, -0.61, -1.06, -0.90, -0.32 (mean -0.62).
Variant GFDLNEYGIS, VIYADGKRTFYTDSVK, GQLAGTFDV gave -0.29, -0.61, -0.83, -0.67, -0.45, -0.57 (mean -0.57).
Variant GFDLNEYGIS, VIYADGMRTVYADSVK, GNNAGTFDM gave ND, ND, ND, ND, ND, ND.
Variant GFNLDEYGIS, VIYADGMRTAYKSKVK, GQVWWNLLM gave ND, ND, 1.14, ND, ND, ND.
Variant GFDLDEYGIS, VIYADGSRVAILESVK, GKIAGTLDT gave -0.17, -0.17, 0.26, -0.59, -0.04, -0.11 (mean -0.14).
Variant GFDLNEYGIS, VIYADGKRTFYSDSVK, GEIAGTFDF gave ND, ND, ND, ND, ND, ND.
Variant GFSLEEYGIS, VIYADGKRTFYTNAVK, GTWGDFGLG gave ND, ND, ND, ND, ND, ND.
Variant GFSLDEYGIS, VIYADGLRKQYSNKVK, GLEGFFFDQ gave ND, ND, ND, ND, ND, ND.
Variant GFDLNEYGIS, VIYADGMRKAYSDSVK, GENAGTFDV gave -0.38, -0.56, -0.66, -0.69, -0.72, -0.55 (mean -0.59).
Variant GFDLDEYGIS, VIYADGKRTAYADDVK, GNVAGTFDV gave 0.17, -0.33, -0.83, -0.49, -0.33, -0.78 (mean -0.43).
Variant GDDIDEYGIS, VIYADGHRKQYSEQVK, GYNAGTLDE gave ND, ND, ND, ND, ND, ND.
Variant GFDLNEYGIS, VIYADGMRTFYADDVK, GANAGTFDV gave 0.00, 0.05, -0.50, -0.19, -0.22, -0.12 (mean -0.16).
Variant GFSLDEMGIS, VIYADGQRTAYVDNVK, SVQGVVVGL gave ND, ND, ND, ND, 2.15, ND.
Variant GFDLNEYGIS, VIYADGMRTAYIDSVK, GNNAGTFDL gave 0.02, -0.24, -0.28, -0.30, -0.50, 0.17 (mean -0.19).
Variant GFDLNEYGIS, VIYADGKRTAYADSVK, GEVAGTFDI gave -0.13, -0.72, -1.22, 1.19, 2.56, 0.78 (mean 0.41).
Variant GFDLNEYGIS, VIYADGRRKYYADSVK, GNTAGTFDV gave 0.42, 0.31, -0.54, -0.94, 0.30, -0.22 (mean -0.11).
Variant GMNLDEYGIS, VIYADGKRCAYANTVK, GELAGFFML gave ND, ND, ND, ND, ND, ND.
Variant GFDIEEYGIS, VIYADGSRTSYSDSVK, SGRTFNMDL gave ND, ND, ND, ND, ND, ND.
Variant GFDLEDYGIS, VIYADGRRTFYSDSVK, GEIAGTFDV gave -0.05, -0.58, -0.16, -0.77, -0.60, -0.32 (mean -0.41).
Variant GFDLNEYGIS, VIYADGVRTFYSDSVK, GEAGGTFDA gave 1.92, ND, 1.80, 2.17, 1.66, 1.50 (mean 1.81).
Variant GETIQSYGIS, VIYSDGLRVFYGDSVK, GKHAGTFDS gave ND, ND, ND, ND, ND, ND.
Variant GFDLNEYGIS, VIYADGMRTAYIDSVK, GENAGTFDV gave 0.06, -0.36, -0.52, -0.07, -0.24, -0.01 (mean -0.19).
Variant GFDINEYGIS, VIYADGRRTFYADSVK, GNQGGTFDV gave ND, ND, -0.01, 0.40, ND, -0.02 (mean 0.12).
Variant GFDINEYGIS, VMYADGSRSVYQDKVK, GFQSGTFDT gave ND, 0.52, 0.71, 0.61, 2.62, 0.55 (mean 1.00).
Variant GFSLDEYGIS, VIYADGMRTAYTADVK, GGKSEDVFT gave ND, 2.25, 2.14, ND, ND, ND (mean 2.20).
Variant GFDLNEYGIS, VIYADGRRTFYKDSVK, GSNAGTFDM gave -0.36, -0.31, -0.18, -0.94, -0.21, -0.39 (mean -0.40).
Variant GFNLDEYGIS, VIYADGRRTFYADSVK, GQVAGTFDE gave -0.38, -0.52, -0.38, -0.66, -0.31, -0.17 (mean -0.40).
Variant GFDLNEYGIS, VIYADGQRTAYSDSVK, GNTAGTFDI gave -0.21, -0.22, -0.24, -0.50, -0.40, -0.15 (mean -0.29).
Variant GFDLDEYGIS, VIYADGMRTFYADSVK, GNIAGTFLI gave -0.36, -0.42, -0.25, -0.21, -0.17, -0.05 (mean -0.24).
Variant GDVLKEYGIS, VIYADGMRTSYVQDVK, GQKSGIFIV gave ND, ND, ND, ND, ND, ND.
Variant GFDLNEYGIS, VIYADGMRTQYIDSVK, GNLAGTFDS gave -0.23, -1.04, -1.22, -1.96, -0.80, -0.96 (mean -1.03).
Variant GFDLEDYGIS, VIYADGRRTQYADSVK, GETAGTFDL gave -0.04, -0.14, -0.16, -0.24, -0.28, -0.05 (mean -0.15).
Variant GFTLNQYRIE, VIYSDSRRTFASDSVK, GRAAAFFDW gave ND, ND, ND, ND, ND, ND.
Variant GFDLDEYGIS, VIYADGVRTAYSDSVK, GNVAGTFDI gave -0.48, -1.05, -0.67, -0.80, -0.42, -0.40 (mean -0.64).
Variant GFDLNEYGIS, VIYADGRRTFYTDSVK, GGNAGTFIM gave ND, ND, ND, 3.34, ND, ND.
Variant GFDLNEYGIS, VIYADGRRTFYSDSVK, GAMAGTFDQ gave 0.17, 0.28, 0.03, 0.28, 0.62, 0.33 (mean 0.29).
Variant GFDLNEYGIS, VIYADGRRTFYTDSVK, GEVAGTFDQ gave -0.22, -0.44, 0.01, -0.20, -0.48, -0.17 (mean -0.25).
Variant GFNLDEVGIS, VIYADGSRVAYVDNVK, GTVDAVDFV gave ND, ND, ND, ND, ND, ND.
Variant GFNLNEYGIS, VIYADGMRTFYTDSVK, GETAGTFDF gave -0.25, -0.42, -0.37, -0.56, -0.45, 0.08 (mean -0.33).
Variant GFDLEDYGIS, VIYADGRRTAYADSVK, GEVAGTFDV gave -0.17, -0.73, -0.25, -0.35, -0.53, -0.45 (mean -0.41).
Variant GFGLDEYGIS, VIYADGERKYYTDNVK, GHFGEDGIV gave ND, ND, ND, ND, ND, ND.
Variant GFGLDEFGIS, VIYADGQRTAYLNSFK, GENSNAVDT gave ND, ND, ND, ND, ND, ND.
Variant GFDLNEYGIS, VIYADGMRTAYADSVK, GGVAGTFDI gave -0.42, -0.68, -0.95, -0.87, -0.82, -0.44 (mean -0.70).
Variant GFNLDEMGIS, VIYADGKRQVYADSFK, GHFGGNKLN gave ND, ND, ND, ND, ND, ND.

Excerpt, the first 3 entries:

{"CDR-H1": "GFQLNEYGIS", "CDR-H2": "VIYADGKRSEYADSVK", "CDR-H3": "GGINSSFSV", "log10 Kd, replicates": "ND, ND, ND, ND, ND, ND", "log10 Kd (nM), mean": "ND"}
{"CDR-H1": "GFDLNEYGIS", "CDR-H2": "VIYADGRRTFYSDSVK", "CDR-H3": "GNVAGTFDD", "log10 Kd, replicates": "0.29, 0.32, -0.41, -0.36, 0.10, 0.04", "log10 Kd (nM), mean": "0.00"}
{"CDR-H1": "GFDLNEYGIS", "CDR-H2": "VIYADGRRTFYSDSVK", "CDR-H3": "GEEAGTFDQ", "log10 Kd, replicates": "0.29, -1.03, -0.33, -1.12, -0.75, -0.43", "log10 Kd (nM), mean": "-0.56"}

In the paper, a design with two or fewer of six values counts as a poor binder.
Values of this round are not directly comparable with the first-round values of the same sequences.
Of ten entries with the parent sequence, four were seen in most replicates (averages 0.34 to 2.37), three in one and three in none, so single entries are noisy.

From the AlphaSeq antibody data of Li et al. 2023 (doi:10.1038/s41467-023-39022-2), copy in the FLAb collection.